Key:
hNav1.3 = molecular target: T1, hNav1.3 (Homo sapiens, UniProt Q9NY46); test: Automated planar whole-cell patch clamp (Patchliner), hSCN3A HEK293T cells; format: cell-based
T1 construct: expressed in transfected cells; host or cells: HEK293T
Source text: (§1) To characterize the functional activity of Hm1a and Hm1b, HEK293T cells stably transfected with either hSCN1A, hSCN2A, hSCN3A, hSCN5A, hSCN9A or hSCN10A as well as CHO cells stably transfected with hSCN4A or hSCN8A were used for whole-cell patch-clamp analysis with a high throughput automated planar patch-clamp technology.
(§2) HEK293T cells stably transfected with either hSCN1A, hSCN2A, hSCN3A, hSCN5A, hSCN9A or hSCN10A were maintained in Dulbecco's Modified Eagle's Medium Nutrient Mixture F-12 (Invitrogen, Carlsbad, Calif., USA) supplemented with 10% (v/v) foetal bovine serum (FBS) (Invitrogen), 0.9% Penicillin/Streptomycin (P/S) solution and 100 μg/mL hygromycin or 100 μg/mL neomycin. CHO cells stably transfected with hSCN4A or hSCN8A were maintained in Ham's F12 Nutrient Mixture (Invitrogen, Carlsbad, Calif., USA) supplemented with 10% (v/v) FBS, 0.9% P/S solution and 100 μg/mL hygromycin. All cells were grown in T75 flasks (BD Biosciences, San Jose, Calif., USA) to ˜70% confluency.
(§3) Patch-clamp recordings were conducted in the whole-cell configuration using a Patchliner® (Nanion Technologies, Munich, Germany). […]

Protein sequences, listed by entry. Tags and fused reporters are not part of them.
UniProt Q9NY46, whole entry: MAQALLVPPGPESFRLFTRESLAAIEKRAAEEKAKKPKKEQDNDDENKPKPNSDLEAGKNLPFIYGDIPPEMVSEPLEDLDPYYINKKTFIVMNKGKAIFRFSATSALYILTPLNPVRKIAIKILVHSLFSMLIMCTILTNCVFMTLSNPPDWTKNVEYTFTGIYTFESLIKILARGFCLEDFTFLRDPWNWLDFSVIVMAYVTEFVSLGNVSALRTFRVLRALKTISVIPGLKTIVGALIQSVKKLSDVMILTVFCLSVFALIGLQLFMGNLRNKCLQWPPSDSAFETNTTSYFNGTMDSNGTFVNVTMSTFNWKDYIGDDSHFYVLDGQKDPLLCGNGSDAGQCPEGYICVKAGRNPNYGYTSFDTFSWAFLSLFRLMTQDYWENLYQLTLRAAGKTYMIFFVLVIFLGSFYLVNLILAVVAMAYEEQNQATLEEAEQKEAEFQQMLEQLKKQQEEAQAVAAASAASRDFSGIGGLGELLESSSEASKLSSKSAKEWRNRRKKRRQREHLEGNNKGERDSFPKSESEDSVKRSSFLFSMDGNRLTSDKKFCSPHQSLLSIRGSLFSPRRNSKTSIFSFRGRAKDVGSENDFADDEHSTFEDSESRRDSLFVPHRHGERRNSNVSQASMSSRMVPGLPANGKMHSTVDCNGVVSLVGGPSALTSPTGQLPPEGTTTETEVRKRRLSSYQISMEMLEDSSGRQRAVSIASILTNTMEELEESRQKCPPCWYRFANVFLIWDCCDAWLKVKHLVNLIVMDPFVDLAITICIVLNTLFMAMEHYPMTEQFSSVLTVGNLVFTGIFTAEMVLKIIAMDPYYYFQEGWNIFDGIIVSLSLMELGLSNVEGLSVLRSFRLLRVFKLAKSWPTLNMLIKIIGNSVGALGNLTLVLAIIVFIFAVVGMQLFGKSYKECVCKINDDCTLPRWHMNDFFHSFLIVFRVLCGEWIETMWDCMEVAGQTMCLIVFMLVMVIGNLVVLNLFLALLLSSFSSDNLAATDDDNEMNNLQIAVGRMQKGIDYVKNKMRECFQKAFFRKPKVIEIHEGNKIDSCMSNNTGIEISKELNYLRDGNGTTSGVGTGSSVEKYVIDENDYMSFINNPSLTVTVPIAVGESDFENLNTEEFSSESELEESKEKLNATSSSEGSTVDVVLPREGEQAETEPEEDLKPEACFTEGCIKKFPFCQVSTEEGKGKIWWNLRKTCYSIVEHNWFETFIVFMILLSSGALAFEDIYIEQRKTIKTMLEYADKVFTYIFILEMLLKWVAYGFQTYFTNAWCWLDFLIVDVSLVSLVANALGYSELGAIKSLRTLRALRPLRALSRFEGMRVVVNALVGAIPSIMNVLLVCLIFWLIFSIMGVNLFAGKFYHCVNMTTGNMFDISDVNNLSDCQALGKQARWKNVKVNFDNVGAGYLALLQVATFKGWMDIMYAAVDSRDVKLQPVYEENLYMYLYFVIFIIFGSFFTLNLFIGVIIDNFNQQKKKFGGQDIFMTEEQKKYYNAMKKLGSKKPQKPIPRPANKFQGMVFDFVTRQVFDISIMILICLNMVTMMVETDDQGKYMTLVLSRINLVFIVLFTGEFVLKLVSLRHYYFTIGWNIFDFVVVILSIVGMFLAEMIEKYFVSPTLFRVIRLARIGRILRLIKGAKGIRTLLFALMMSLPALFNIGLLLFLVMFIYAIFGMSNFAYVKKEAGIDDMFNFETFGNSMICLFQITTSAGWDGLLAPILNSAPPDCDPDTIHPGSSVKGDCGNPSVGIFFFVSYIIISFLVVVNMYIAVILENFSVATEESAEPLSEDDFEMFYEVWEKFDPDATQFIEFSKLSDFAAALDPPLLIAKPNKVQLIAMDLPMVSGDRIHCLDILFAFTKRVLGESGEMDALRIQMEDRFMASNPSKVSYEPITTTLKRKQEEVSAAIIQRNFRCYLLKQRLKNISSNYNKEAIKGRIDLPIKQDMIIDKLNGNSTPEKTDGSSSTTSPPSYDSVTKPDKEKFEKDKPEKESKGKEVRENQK
UniProt Q15858, whole entry: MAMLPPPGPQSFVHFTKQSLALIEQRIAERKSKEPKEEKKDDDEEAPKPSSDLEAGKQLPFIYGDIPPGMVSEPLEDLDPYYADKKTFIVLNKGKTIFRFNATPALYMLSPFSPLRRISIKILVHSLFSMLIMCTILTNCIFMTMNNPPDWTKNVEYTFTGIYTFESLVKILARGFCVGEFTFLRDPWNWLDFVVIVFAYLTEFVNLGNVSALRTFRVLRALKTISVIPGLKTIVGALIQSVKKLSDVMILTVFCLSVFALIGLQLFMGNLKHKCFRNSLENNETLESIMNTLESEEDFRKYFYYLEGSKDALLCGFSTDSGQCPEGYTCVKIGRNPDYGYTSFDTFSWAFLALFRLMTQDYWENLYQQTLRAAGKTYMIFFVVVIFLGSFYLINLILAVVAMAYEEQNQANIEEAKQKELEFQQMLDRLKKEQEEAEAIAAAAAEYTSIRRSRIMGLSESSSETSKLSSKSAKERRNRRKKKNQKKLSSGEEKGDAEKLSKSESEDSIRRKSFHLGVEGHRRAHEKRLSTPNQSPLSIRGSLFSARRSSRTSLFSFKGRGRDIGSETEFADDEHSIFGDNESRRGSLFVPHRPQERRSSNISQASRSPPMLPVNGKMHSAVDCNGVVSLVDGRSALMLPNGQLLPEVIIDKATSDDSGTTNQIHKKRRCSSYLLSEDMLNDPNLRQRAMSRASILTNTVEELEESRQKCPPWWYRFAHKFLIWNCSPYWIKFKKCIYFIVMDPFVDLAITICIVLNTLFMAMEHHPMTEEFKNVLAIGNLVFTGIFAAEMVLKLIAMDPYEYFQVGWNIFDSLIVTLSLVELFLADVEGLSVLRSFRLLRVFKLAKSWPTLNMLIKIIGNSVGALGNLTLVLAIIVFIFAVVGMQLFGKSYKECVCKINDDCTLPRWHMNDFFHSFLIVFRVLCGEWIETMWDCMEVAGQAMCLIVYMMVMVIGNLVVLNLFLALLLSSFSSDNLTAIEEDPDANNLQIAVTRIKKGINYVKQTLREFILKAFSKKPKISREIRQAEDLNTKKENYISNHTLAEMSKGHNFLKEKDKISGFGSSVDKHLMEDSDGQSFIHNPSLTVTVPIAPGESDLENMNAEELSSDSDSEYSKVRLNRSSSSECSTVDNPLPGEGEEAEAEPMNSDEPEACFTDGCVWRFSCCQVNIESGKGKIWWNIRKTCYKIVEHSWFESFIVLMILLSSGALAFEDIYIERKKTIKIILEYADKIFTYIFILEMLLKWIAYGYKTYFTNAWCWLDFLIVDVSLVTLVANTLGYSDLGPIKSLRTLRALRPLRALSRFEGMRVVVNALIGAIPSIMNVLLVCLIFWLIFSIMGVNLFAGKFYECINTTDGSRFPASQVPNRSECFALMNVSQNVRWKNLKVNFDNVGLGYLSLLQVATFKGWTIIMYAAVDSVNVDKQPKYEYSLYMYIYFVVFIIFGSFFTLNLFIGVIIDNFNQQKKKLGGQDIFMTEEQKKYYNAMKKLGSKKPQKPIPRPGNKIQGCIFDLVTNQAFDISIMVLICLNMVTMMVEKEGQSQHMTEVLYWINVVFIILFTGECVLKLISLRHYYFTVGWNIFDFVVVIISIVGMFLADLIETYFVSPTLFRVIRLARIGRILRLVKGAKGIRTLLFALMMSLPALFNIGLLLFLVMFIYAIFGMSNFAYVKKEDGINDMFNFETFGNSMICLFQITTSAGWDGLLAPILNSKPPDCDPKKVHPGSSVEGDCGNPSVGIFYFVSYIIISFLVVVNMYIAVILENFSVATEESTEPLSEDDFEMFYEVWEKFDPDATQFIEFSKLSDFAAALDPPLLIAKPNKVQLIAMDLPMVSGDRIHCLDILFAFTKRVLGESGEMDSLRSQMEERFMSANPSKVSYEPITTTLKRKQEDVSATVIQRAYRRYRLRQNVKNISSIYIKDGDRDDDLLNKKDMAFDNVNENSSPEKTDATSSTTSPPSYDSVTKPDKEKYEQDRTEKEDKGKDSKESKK

hNav1.7 = molecular target: T2, hNav1.7 (Homo sapiens, UniProt Q15858); test: Automated planar whole-cell patch clamp (Patchliner), hSCN9A HEK293T cells; format: cell-based; conditions: concentrations tested up to 50 nM
T2 construct: expressed in transfected cells; host or cells: HEK293T
Source text: as §1, §2, §3

[1] = system: SCN1A (R1407X) Dravet syndrome mice; test: ECoG interictal spiking after ICV infusion; format: in vivo, mouse; conditions: after ICV Hm1a (5 μL of 0.5 mM); before delivery 28±6; n=10; p=0.0059
Source text: Heterozygous SCN1A (R1407X) Dravet syndrome mice and wild-type littermates underwent ECoG and intracerebroventricular (ICV) guide cannula implantation surgery at post-natal day 18. ECoG surgery was as previously described in Reid, et al. (2011) Epilepsia, 52 (1): 115-120. In addition, a guide cannula was implanted during the surgery positioned in the right ventricle using a Kopf® stereotaxic frame with the following coordinates from bregma: caudal −0.4 mm and lateral 1.0 mm; 2.0 mm from the skull. At least 24 hours recovery was allowed following surgery before commencing ECoG recording and simultaneous infusion of either peptide or vehicle alone delivered via ICV. A total volume of 5 μL of peptide (0.5 mM) was infused, suspended in vehicle containing 0.1% BSA and sterile saline; control animals received 5 μL of vehicle only. Synthetic Hm1a (Example 1) or vehicle only was infused (0.1 μL/minute) via an internal cannula connected to a Hamilton syringe and driver (Harvard PHD 2000). […]
ECoG and video recordings were made for unrestrained animals at least one hour prior to ICV peptide delivery and then an additional 2-3 hours after infusion using Powerlab 16/30 (AD Instruments Pty. Ltd., Sydney, NSW, Australia); signals were band-pass filtered at 0.1 to 200 Hz and sampled at 1 kHz. […] Data was analysed using Sirenia Seizure Pro (1.6.6; Pinnacle Technology). […]

CC(C)C[C@@H]1NC(=O)[C@H](Cc2ccc(O)cc2)NC(=O)[C@H](CCCNC(=N)N)NC(=O)[C@@H](NC(=O)[C@@H](N)CCC(=O)O)CSSC[C@@H]2NC(=O)[C@@H]3CSSC[C@@H](C(=O)N[C@@H](C)C(=O)N[C@@H](Cc4c[nH]c5ccccc45)C(=O)N[C@@H](CC(=O)O)C(=O)NCC(=O)N[C@H](C(=O)N[C@@H](Cc4ccccc4)C(=O)N[C@@H](CO)C(=O)O)[C@@H](C)O)NC(=O)[C@H](Cc4ccc(O)cc4)NC(=O)[C@H](CCCCN)NC(=O)[C@H](Cc4c[nH]c5ccccc45)NC(=O)[C@H](CC(=O)O)NC(=O)[C@H](CO)NC(=O)[C@H](CCCNC(=N)N)NC(=O)[C@H](CSSC[C@H](NC(=O)CNC(=O)CNC(=O)[C@H](Cc4ccccc4)NC1=O)C(=O)N[C@@H](CO)C(=O)N[C@@H](CO)C(=O)N[C@@H]([C@@H](C)O)C(=O)N[C@@H](CO)C(=O)N[C@@H](CC(=O)O)C(=O)N3)NC(=O)[C@H](CO)NC(=O)[C@H](CC(C)C)NC(=O)[C@H](Cc1c[nH]cn1)NC(=O)[C@H](CCCCN)NC2=O [Hm1a]
hNav1.3 sustained current (hNav1.3): does not result in a sustained current | rate of inactivation of hNav1.3 (hNav1.3; to a lesser extent than hNav1.1, 1, 5 or 50 nM): slows the rate of inactivation | effect on hNav1.7 current (hNav1.7): no effect | number of high amplitude interictal spikes during 30 min epoch [1]: 12±2
